The test system of one assay is Enterobacter cloacae. Kind of assay: Minimum inhibitory concentration (MIC) was measured against Enterobacter cloacae. Type of assay: functional. An outline of the steps:
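Strains were clinical isolates from the microbiology laboratories of Cliniques Universitaires St-Luc and Hôpital Brugmann, Brussels, and were characterized there. Compounds were tested as sulfate salts, which were stable in distilled water at pH 7.0 for at least 24 h. MIC was the highest dilution giving no visible growth, expressed in mg/L of free base.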

The test system of another assay is Acinetobacter lwoffii. Conditions: acinetobacter iwoffi; ATCC 17986.
The test system of the next assay is Staphylococcus aureus. Conditions: ATCC 25923.

As for GENTAMICIN, the results for the MIC in the assay on Enterobacter cloacae, against Acinetobacter lwoffii and in the assay on Staphylococcus aureus were 2 µg/mL, 2 µg/mL and 0.5 µg/mL, respectively.

The values are drawn from ChEMBL document CHEMBL1128666, “Synthesis and antimicrobial and toxicological studies of amino acid and peptide derivatives of kanamycin A and netilmicin” (J Med Chem, 1995).
